Results on nine molecules are retold here after patent US20260384450A1, “MACROCYCLIC AMINOPYRIDINE COMPOUNDS AS EGFR INHIBITORS” (published 2026).

The chains behind the UniProt entries cited, without tags or fusion partners. Where a name states a change or a piece, a line headed by the entry shows the natural chain unless it says otherwise. A line that says so, or that is headed by a name, gives the form on record, which may keep a tag or linker. Residues count along the entry.
UniProt P00533, 25-1210 limits assumed: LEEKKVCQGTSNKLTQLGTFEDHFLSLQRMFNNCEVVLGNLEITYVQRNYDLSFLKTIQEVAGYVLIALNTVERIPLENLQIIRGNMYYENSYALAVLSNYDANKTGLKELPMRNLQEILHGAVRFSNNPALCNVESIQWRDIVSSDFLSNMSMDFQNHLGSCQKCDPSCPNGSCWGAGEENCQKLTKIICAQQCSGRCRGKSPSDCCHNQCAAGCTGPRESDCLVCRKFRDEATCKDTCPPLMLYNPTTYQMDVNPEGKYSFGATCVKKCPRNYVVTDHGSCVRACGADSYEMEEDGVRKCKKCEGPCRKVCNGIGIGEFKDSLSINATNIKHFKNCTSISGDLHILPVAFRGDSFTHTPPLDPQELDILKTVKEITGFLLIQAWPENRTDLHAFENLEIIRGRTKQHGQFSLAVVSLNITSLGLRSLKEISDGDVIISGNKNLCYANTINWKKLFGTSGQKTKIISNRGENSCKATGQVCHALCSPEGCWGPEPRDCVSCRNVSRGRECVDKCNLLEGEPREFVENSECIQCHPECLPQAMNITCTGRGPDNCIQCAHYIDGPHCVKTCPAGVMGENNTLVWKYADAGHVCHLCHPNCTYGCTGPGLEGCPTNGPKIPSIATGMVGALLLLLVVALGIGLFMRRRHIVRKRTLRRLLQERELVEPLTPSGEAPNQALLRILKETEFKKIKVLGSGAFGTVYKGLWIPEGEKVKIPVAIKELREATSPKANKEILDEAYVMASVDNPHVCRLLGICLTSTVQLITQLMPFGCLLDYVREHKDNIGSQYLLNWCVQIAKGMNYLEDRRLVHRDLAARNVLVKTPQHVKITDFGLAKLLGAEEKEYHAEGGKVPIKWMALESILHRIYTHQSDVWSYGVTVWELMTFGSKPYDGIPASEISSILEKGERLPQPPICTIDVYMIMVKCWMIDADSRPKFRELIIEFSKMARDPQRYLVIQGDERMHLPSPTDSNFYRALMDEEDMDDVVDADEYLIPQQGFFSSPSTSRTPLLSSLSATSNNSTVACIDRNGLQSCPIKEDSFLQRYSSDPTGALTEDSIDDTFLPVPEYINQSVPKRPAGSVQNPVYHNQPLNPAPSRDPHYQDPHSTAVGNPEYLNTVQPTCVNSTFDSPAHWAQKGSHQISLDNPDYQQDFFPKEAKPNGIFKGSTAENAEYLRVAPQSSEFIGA
UniProt P00533, 25-1210 C797S/L858R limits assumed: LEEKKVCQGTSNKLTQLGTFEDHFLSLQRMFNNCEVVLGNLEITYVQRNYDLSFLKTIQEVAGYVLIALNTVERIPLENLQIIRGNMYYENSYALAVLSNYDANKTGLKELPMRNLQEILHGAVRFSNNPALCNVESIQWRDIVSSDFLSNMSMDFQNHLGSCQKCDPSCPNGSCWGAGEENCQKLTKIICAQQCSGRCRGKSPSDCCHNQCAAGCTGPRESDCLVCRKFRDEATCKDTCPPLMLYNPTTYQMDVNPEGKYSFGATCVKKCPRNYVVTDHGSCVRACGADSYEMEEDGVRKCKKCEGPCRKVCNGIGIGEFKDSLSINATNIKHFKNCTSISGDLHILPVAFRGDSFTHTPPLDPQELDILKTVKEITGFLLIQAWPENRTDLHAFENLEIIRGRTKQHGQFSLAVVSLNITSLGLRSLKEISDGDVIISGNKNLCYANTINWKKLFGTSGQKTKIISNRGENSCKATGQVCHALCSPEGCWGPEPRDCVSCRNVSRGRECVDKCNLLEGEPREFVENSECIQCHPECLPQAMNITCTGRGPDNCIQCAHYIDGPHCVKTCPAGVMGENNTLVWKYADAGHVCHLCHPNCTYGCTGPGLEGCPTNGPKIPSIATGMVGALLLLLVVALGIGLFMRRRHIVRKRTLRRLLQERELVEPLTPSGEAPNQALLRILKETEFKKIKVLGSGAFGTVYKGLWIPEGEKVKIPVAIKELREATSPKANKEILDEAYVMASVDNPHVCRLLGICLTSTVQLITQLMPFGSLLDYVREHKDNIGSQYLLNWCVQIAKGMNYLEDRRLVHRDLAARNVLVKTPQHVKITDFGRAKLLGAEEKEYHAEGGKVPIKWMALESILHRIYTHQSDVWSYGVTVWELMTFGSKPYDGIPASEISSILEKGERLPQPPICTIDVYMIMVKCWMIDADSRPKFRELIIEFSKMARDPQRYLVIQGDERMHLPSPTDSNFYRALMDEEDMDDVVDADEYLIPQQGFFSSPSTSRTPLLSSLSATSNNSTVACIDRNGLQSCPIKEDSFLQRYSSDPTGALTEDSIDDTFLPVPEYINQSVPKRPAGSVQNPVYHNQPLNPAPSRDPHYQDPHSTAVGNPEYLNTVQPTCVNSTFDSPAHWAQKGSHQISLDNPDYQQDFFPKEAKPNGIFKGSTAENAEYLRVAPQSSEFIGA
UniProt P00533, 25-1210 T790M/C797S/L858R limits assumed: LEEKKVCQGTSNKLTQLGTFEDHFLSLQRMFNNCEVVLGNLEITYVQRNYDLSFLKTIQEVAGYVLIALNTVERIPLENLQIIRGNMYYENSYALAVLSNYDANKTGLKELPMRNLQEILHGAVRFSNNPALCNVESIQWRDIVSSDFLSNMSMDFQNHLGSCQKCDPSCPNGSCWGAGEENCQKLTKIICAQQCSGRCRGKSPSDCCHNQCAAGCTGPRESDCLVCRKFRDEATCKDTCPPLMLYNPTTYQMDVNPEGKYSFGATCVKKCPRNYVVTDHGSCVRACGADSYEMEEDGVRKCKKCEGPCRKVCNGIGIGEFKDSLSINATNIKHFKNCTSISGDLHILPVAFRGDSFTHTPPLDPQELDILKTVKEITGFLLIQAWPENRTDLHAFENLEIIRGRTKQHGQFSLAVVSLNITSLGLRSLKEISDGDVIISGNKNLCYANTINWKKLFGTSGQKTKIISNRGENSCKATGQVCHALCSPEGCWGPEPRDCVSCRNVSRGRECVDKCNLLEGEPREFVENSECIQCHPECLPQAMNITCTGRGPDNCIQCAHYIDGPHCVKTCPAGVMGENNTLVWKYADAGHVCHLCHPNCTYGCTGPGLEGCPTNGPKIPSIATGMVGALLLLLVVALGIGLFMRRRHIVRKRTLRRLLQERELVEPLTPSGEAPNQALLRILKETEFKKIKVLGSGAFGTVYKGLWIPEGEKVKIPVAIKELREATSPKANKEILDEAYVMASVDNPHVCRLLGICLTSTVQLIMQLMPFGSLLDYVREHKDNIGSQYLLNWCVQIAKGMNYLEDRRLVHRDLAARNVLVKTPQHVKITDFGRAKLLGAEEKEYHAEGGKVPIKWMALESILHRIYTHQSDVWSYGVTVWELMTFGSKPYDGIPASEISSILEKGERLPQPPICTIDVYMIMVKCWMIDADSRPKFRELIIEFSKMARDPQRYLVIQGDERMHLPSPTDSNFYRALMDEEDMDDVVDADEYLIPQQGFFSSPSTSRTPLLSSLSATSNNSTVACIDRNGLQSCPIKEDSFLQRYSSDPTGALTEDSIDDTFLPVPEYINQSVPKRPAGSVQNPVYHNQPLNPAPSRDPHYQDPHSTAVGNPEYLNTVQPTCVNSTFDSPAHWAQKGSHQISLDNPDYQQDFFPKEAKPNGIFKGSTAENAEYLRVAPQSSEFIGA
UniProt P00533, with tags, fused parts or gaps DEL746-750/C797S limits assumed: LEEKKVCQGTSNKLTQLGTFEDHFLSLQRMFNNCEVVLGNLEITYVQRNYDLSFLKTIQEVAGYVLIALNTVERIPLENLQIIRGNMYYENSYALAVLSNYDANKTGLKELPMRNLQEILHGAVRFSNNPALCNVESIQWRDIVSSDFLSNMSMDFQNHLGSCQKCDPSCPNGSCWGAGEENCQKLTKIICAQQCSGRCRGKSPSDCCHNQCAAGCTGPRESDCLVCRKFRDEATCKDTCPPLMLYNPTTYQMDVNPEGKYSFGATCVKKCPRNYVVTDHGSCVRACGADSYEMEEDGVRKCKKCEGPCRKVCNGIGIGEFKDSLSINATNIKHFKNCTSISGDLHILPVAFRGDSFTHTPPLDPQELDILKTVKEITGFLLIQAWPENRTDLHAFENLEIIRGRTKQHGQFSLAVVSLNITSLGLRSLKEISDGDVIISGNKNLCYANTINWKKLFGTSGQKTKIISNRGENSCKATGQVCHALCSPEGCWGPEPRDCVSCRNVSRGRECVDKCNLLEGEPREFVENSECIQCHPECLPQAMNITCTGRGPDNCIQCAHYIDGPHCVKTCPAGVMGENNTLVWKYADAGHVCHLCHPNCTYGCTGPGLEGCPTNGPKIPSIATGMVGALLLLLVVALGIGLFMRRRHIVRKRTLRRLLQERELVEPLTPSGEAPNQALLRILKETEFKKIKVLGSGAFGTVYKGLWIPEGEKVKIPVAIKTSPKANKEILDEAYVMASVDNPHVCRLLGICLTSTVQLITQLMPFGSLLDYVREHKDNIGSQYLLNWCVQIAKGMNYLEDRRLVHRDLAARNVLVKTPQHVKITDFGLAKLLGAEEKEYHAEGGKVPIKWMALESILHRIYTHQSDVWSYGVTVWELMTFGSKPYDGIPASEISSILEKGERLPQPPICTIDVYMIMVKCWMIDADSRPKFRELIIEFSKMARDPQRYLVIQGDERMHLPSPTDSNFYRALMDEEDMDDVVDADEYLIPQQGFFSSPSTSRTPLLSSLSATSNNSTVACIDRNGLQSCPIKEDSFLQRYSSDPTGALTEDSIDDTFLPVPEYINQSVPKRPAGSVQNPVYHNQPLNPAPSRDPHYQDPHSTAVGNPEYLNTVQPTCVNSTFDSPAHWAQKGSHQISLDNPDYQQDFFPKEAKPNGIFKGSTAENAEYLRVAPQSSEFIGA
UniProt P00533, with tags, fused parts or gaps DEL746-750/T790M/C797S limits assumed: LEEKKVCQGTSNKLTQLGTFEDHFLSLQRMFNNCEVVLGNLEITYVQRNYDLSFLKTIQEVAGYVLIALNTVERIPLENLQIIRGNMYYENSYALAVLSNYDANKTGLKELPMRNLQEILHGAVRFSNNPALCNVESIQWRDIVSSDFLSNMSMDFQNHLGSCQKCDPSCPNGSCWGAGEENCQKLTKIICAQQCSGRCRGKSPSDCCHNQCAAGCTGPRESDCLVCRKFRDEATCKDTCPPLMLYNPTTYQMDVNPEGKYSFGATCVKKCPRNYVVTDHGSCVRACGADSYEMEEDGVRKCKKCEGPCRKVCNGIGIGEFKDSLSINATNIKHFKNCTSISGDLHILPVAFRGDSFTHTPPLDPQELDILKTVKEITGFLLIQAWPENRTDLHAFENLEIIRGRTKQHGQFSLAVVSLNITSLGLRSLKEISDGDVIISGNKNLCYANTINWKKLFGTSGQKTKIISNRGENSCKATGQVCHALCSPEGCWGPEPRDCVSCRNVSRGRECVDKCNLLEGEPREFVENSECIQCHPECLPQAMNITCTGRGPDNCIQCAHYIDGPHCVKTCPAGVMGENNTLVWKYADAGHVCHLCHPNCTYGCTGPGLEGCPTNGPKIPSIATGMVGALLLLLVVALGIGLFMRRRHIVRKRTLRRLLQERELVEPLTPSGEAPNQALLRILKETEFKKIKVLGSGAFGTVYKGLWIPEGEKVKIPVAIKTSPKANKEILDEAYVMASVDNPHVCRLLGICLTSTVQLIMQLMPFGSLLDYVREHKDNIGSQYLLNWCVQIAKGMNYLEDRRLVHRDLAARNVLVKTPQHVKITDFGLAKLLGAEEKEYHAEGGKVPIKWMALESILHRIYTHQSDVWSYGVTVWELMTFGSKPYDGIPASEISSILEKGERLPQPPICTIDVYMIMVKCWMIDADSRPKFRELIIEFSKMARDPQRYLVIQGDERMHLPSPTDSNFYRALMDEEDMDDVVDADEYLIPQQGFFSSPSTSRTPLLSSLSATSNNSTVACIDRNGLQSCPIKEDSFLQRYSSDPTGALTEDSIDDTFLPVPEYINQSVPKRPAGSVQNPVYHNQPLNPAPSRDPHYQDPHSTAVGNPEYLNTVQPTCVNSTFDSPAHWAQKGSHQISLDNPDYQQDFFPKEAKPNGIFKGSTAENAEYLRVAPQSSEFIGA

In assay [1] the target is EGFR D19TMCS (del19/T790M/C797S) (Homo sapiens, UniProt P00533, C797S/DEL746-750/T790M). Kind of assay: Biochemical EGFR kinase assay (Lance Ultra TR-FRET), triple mutant del19/T790M/C797S. Background: In TR-FRET formats the signal depends on donor and acceptor labels being close together.
Assay [2] has as its target EGFR LRTMCS (L858R/T790M/C797S) (Homo sapiens, UniProt P00533, C797S/L858R/T790M). Kind of assay: Biochemical EGFR kinase assay (Lance Ultra TR-FRET), triple mutant L858R/T790M/C797S.
Assay [3] addresses EGFR D19CS (del19/C797S) (Homo sapiens, UniProt P00533, C797S/DEL746-750). Kind of assay: Biochemical EGFR kinase assay (Lance Ultra TR-FRET), double mutant del19/C797S.
Assay [4] has as its target EGFR LRCS (L858R/C797S) (Homo sapiens, UniProt P00533, C797S/L858R). As to the kind of experiment: Biochemical EGFR kinase assay (Lance Ultra TR-FRET), double mutant L858R/C797S.
Assay [5] deals with EGFR WT (Homo sapiens, UniProt P00533). As to the kind of experiment: Biochemical EGFR kinase assay (Lance Ultra TR-FRET), wildtype.
The mark [6] stands for this setting: read-out: EGFR D19TMCS IC50, ATP 1 mM.
[7] abbreviates: read-out: EGFR D19TMCS IC50, ATP Km.
The mark [8] stands for this setting: read-out: EGFR LRTMCS IC50, ATP 1 mM.
Setting [9] is: read-out: EGFR LRTMCS IC50, ATP Km.
The mark [10] stands for this setting: read-out: EGFR D19CS IC50, ATP 1 mM.
Setting [11] is: read-out: EGFR D19CS IC50, ATP Km.
Where [12] appears, read: read-out: EGFR LRCS IC50, ATP 1 mM.
[13] abbreviates: read-out: EGFR LRCS IC50, ATP Km.
[14] abbreviates: read-out: EGFR WT IC50, ATP 1 mM.
Where [15] appears, read: read-out: IC50, EGFR D19TMCS, Km, ATP at Km, EGFR del19/T790M/C797S.
Where [16] appears, read: read-out: IC50, EGFR LRTMCS, 1 mM, ATP 1 mM, EGFR L858R/T790M/C797S.
The mark [17] stands for this setting: read-out: IC50, EGFR LRTMCS, Km, ATP at Km, EGFR L858R/T790M/C797S.
[18] abbreviates: read-out: IC50, EGFR-D19CS, 1 mM, ATP 1 mM, EGFR del19/C797S.
Where [19] appears, read: read-out: IC50, EGFR-D19CS, Km, ATP at Km, EGFR del19/C797S.
The mark [20] stands for this setting: read-out: IC50, EGFR-LRCS, 1 mM, ATP 1 mM, EGFR L858R/C797S.
The mark [21] stands for this setting: read-out: IC50, EGFR-LRCS, Km, ATP at Km, EGFR L858R/C797S.
The mark [22] stands for this setting: read-out: IC50, EGFR WT, 1 mM, ATP 1 mM, EGFR wildtype.
The mark [23] stands for this setting: read-out: IC50, EGFR WT, Km, ATP at Km, EGFR wildtype.

pIC50: −log10 of the molar value. Like-named read-outs stand apart in the source and are kept apart here. Bounds are passed on as bounds.

Usually pIC50 stands for −log10 of the IC50, conventionally taken in molar units. `C[C@H]1CCOc2c(cnn2C)-c2nccc(n2)Nc2cc(c(-c3cnccn3)cn2)N1`: the pIC50 was over 8.00 in assay [1] (setting [6]); over 8.00 in assay [1] (setting [7]); over 8.00 in assay [2] (setting [8]); over 8.00 in assay [2] (setting [9]); 7.00 to 8.00 in assay [3] (setting [10]); 7.00 to 8.00 in assay [3] (setting [11]). Moreover, the pIC50 was 6.00 to 7.00 in assay [4] (setting [12]); 7.00 to 8.00 in assay [4] (setting [13]); under 6.00 in assay [5] (setting [14]); 7.00 to 8.00 in assay [5] (read-out: EGFR WT IC50, ATP Km).

For `Cc1nn(C)c2c1-c1nccc(n1)Nc1cc(c(-c3ncc(C(C)(C)O)cn3)cn1)NCC[C@H](C)O2`, the pIC50 in assay [1] (setting [15]) is over 8.00; in assay [2] (setting [16]), over 8.00; in assay [2] (setting [17]) it was over 8.00; in assay [3] (setting [18]), 7.00 to 8.00; in assay [3] (setting [19]), over 8.00; in assay [4] (setting [20]), 7.00 to 8.00. Also, the pIC50 was over 8.00 in assay [4] (setting [21]), under 6.00 in assay [5] (setting [22]) and 7.00 to 8.00 in assay [5] (setting [23]).

Consider `Cn1ncc2c1OC[C@@H]1CC[C@@H](C1)Nc1cc(ncc1-c1ccn(C(F)F)n1)Nc1ccnc-2n1`, for which the negative logarithm of the IC50 (pIC50) in assay [1] (setting [6]) is 7.00 to 8.00; in assay [1] (setting [7]), over 8.00; in assay [2] (setting [8]) it was 6.00 to 7.00; in assay [2] (setting [9]), over 8.00; in assay [3] (setting [10]), under 6.00; in assay [3] (setting [11]), 6.00 to 7.00. Besides, the pIC50 in assay [4] (setting [12]) was under 6.00; in assay [4] (setting [13]), 6.00 to 7.00; in assay [5] (setting [14]), under 6.00; in assay [5] (read-out: EGFR WT IC50, ATP Km), 6.00 to 7.00.

For the molecule `Cc1nn(C)c2c1-c1nccc(n1)Nc1cc(c(-c3ncc(CN4C[C@H](CS(C)(=O)=O)[C@@H]4C)cc3F)cn1)N[C@@H](C)CCO2`, the pIC50 in assay [1] (setting [15]) was over 8.00; in assay [2] (setting [16]) it was over 8.00; in assay [2] (setting [17]), over 8.00; in assay [3] (setting [18]), 7.00 to 8.00; in assay [3] (setting [19]) it was over 8.00; in assay [4] (setting [20]) it was 7.00 to 8.00. The pIC50 in assay [4] (setting [21]) is over 8.00; in assay [5] (setting [22]), under 6.00; in assay [5] (setting [23]) it was 7.00 to 8.00.

Consider `Cc1nn(C)c2c1-c1nccc(n1)Nc1cc(c(-c3cccc(C(C)(C)O)n3)cn1)NCC[C@H](C)O2`, for which the pIC50 was over 8.00 in assay [1] (setting [15]); over 8.00 in assay [2] (setting [16]); over 8.00 in assay [2] (setting [17]); 7.00 to 8.00 in assay [3] (setting [18]); over 8.00 in assay [3] (setting [19]); 7.00 to 8.00 in assay [4] (setting [20]). Also, the results for the pIC50 in assay [4] (setting [21]), in assay [5] (setting [22]) and in assay [5] (setting [23]) were over 8.00, under 6.00 and 7.00 to 8.00, respectively.

Turning to `Cc1nn(C)c2c1-c1nccc(n1)Nc1cc(c(-c3ncc(CN4CC5(COC5)C4)cc3F)cn1)N[C@@H](C)CCO2`, the pIC50 in assay [1] (setting [6]), in assay [1] (setting [7]), in assay [2] (setting [8]), in assay [2] (setting [9]), in assay [3] (setting [10]) and in assay [3] (setting [11]) was over 8.00 throughout. For the same molecule, the pIC50 was 7.00 to 8.00 in assay [4] (setting [12]); over 8.00 in assay [4] (setting [13]); under 6.00 in assay [5] (setting [14]); over 8.00 in assay [5] (read-out: EGFR WT IC50, ATP Km).

As for `C[C@H]1CCOc2c(cnn2C)-c2nccc(n2)Nc2cc(c(-c3ncc(CN4CCOCC4)cc3F)cn2)N1`, the pIC50 in assay [1] (setting [6]) was over 8.00; in assay [1] (setting [7]), over 8.00; in assay [2] (setting [8]), over 8.00; in assay [2] (setting [9]), over 8.00; in assay [3] (setting [10]), 7.00 to 8.00; in assay [3] (setting [11]), over 8.00. For the same molecule, the pIC50 in assay [4] (setting [12]) is 7.00 to 8.00; in assay [4] (setting [13]), over 8.00; in assay [5] (setting [14]), under 6.00; in assay [5] (read-out: EGFR WT IC50, ATP Km), over 8.00.

Turning to `Cn1ncc2c1OCCCCNc1cc(ncc1-c1ccn(C(F)F)n1)Nc1ccnc-2n1`, the pIC50 in assay [1] (setting [6]) was over 8.00; in assay [1] (setting [7]), over 8.00; in assay [2] (setting [8]), 7.00 to 8.00; in assay [2] (setting [9]), over 8.00; in assay [3] (setting [10]) it was under 6.00; in assay [3] (setting [11]), 7.00 to 8.00. The pIC50 in assay [4] (setting [12]) was under 6.00; in assay [4] (setting [13]), over 8.00; in assay [5] (setting [14]), under 6.00; in assay [5] (read-out: EGFR WT IC50, ATP Km), 6.00 to 7.00.

Regarding `Cc1nn(C)c2c1-c1nccc(n1)Nc1cc(c(-c3ccc(C(C)(O)C(F)(F)F)cn3)cn1)N[C@@H](C)CCO2` (stereo partly drawn), the pIC50 in assay [1] (setting [6]), in assay [1] (setting [7]), in assay [2] (setting [8]), in assay [2] (setting [9]), in assay [3] (setting [10]) and in assay [3] (setting [11]) was over 8.00 throughout. In addition, the pIC50 in assay [4] (setting [12]) is 7.00 to 8.00; in assay [4] (setting [13]) it was over 8.00; in assay [5] (setting [14]), under 6.00; in assay [5] (read-out: EGFR WT IC50, ATP Km), over 8.00.
